Assay results: US12157772B2, “Prophylactic agent, onset-suppressing agent or therapeutic agent for progressive immune demyelinating diseases” (NATIONAL CENTER OF NEUROLOGY AND PSYCHIATRY, priority 2016, dated 2024)

Test system: Spleen-derived CD19+ B cells
Experiment: Zbtb20 expression in spleen-derived CD19+ B cells cultured with LPS and various cytokines
Type: cell-based, mouse
Conditions: cultured for 24 h in the presence of LPS and cytokine; FIG. 33
Method: Spleen-derived CD19^+ B cells were isolated and purified by sorting by FACS using a FACS ARIA II (manufactured by BD Cytometry Systems, Inc.). The purified B cells were cultured for 24 h in the presence of LPS and in the co-presence or absence of each cytokine designated in FIG. 33(a). After the culturing, the expression levels of Zbtb20 gene in the respective cells were measured. As antibodies used at the detection were an anti-CD19 antibody (manufactured by Biolegend, Inc.) and an anti-Zbtb20 antibody (manufactured by Becton Dickinson, Inc.).

B1: IFNβ1: cytokine (type 1 interferon) added to B cell culture (protein, UniProt P01574 22-187, looked up)
Interferon beta: MSYNLLGFLQRSSNFQCQKLLWQLNGRLEYCLKDRMNFDIPEEIKQLQQFQKEDAALTIYEMLQNIFAIFRQDSSSTGWNETIVENLLANVYHQINHLKTVLEEKLEKEDFTRGKLMSSLHLKRYYGRILHYLKAKEYSHCAWTIVRVEILRNFYFINRLTGYLRN
- increase in the expression of Zbtb20 gene: the most remarkable
